Molecular target: Human GO (Homo sapiens, UniProt Q9UJM8)
Assay: GO Enzymatic Assay (Assay 1)
Format: biochemical
Settings: read-out: Range of IC50 values calculated from the enzymatic assays (Assay 1), glycolate substrate, pH 7, percent inhibition relative to DMSO control, tested form: 2,2,2-trifluoroacetate

Sequences of proteins named here, by UniProt entry; tags and fusion partners are left off.
UniProt Q9UJM8, whole entry: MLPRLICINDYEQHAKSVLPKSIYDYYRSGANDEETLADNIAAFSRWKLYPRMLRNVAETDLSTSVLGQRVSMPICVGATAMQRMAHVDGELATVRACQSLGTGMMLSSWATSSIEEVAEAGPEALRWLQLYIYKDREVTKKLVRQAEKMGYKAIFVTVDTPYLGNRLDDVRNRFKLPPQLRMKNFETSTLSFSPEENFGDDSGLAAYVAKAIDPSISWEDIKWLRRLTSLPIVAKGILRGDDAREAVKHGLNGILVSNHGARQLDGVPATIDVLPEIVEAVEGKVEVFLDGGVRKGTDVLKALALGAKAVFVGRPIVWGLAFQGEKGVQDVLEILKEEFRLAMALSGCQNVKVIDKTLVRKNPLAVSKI

## O=C(O)c1[nH]nnc1SCc1ccc(N2CCCCC2)c2ccccc12
  IC50: < 100 nM

— patent publication US20230088214A1, “GLYCOLATE OXIDASE INHIBITORS FOR THE TREATMENT OF DISEASE” (BIOMARIN PHARMACEUTICAL INC., priority 2019, published 2023)
